Eight molecules from PubChem BioAssay AID1645854 (Buhrlage Lab, Dana-Farber Cancer Institute and Novartis …, 2021) can be followed below.

The chains behind the UniProt entries cited, without tags or fusion partners.
UniProt Q93009, whole entry: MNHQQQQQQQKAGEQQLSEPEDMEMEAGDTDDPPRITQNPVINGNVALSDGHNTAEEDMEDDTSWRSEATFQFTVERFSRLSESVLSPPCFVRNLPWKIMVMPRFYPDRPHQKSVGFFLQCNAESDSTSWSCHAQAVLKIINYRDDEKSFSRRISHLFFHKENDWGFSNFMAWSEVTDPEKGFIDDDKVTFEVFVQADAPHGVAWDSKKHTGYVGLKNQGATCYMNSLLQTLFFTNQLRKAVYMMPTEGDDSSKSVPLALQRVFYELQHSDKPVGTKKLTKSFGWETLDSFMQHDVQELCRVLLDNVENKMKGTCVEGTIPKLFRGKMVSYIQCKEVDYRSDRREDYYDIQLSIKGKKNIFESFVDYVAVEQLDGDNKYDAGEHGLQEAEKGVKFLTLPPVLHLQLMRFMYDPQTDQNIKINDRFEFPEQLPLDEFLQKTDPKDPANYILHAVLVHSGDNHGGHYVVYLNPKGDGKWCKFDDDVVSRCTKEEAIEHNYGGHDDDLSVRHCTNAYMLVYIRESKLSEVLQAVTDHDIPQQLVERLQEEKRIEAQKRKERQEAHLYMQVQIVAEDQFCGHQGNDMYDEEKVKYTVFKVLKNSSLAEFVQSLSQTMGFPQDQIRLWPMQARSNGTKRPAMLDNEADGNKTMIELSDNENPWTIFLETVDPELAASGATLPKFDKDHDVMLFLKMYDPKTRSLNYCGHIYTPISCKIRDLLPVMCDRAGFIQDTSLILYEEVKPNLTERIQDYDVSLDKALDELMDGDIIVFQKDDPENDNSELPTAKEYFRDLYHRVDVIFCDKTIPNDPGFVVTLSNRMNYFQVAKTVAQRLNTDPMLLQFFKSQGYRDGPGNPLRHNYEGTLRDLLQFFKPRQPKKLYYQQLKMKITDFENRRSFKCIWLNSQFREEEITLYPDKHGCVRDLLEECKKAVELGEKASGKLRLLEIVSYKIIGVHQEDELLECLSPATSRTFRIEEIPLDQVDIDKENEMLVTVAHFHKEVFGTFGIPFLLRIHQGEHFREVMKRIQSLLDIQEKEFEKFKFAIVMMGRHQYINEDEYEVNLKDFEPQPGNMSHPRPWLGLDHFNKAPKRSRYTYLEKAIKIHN

The list shows a part of the results, in another mix than the full data. Active and inactive are the calls of the source. No stated cut-off is given here; in the data, active means inhibition above about 30%; inactive means the rest.

The assay addresses Ubiquitin carboxyl-terminal hydrolase 7 (Homo sapiens) (UniProt Q93009). Kind of assay: blocks human USP7 ubiquitin-rhodamine cleavage (AID 1645854). As to conditions: purified USP7, Ub-rhodamine cleavage fluorescence; at 20 µM; stronger effect = higher value.
For the molecule `CN(C)c1ccc(C(=O)NCC2(N3CCCCC3)CCCCC2)cc1`, the inhibition was inactive: 1.88%.

Turning to `N#Cc1ccc(C(=O)NCC2(N3CCCCC3)CCCCC2)cc1`, the inhibition is inactive: -2.28%.

As for `O=C(NCC1(N2CCOCC2)CCCCC1)c1ccccc1Cl`, the inhibition is inactive: -3.81%.

With `O=C(NCC1(N2CCCCC2)CCCCC1)c1ccc2ncsc2c1`, the inhibition was inactive: -0.266%.

As for `Cc1ccccc1C(=O)NCC1(N2CCOCC2)CCCCC1`, the inhibition is inactive: 2.61%.

On to `Cc1cc(C(=O)NCC2(N3CCOCC3)CCCCC2)c2ccccc2n1`, for which the inhibition is inactive: 2.62%.

With `CC1CN(CCc2ccccc2)CCC1=O` (stereo not drawn), the inhibition was inactive: 0.237%.

For `O=C(NCC1(N2CCCCC2)CCCCC1)c1ccc(F)cc1`, the inhibition was inactive: -3.35%.

By inhibition is commonly meant the drop in the measured response relative to a control, in per cent.
